Source: patent US8614184B2, “HCG formulations for achieving weight loss” (priority 2010, dated 2013)

Experiments:
[1] = cited from earlier work
[2] = Applicant's HCG / enhanced HCG low calorie diet protocol, experience and observation in treated participants; format: in vivo, human
From the text: A human body's deep fat reserve is broken down after prolonged severe calorie restriction, or after using HCG with calorie restriction. Protocol participants cannot be insulin dependent diabetics nor have active cancer. Protocol participants must have a recent complete blood count test (CBC) and metabolic profile. Protocol participants have to keep a one week log of everything they eat prior to inclusion within the HCG protocol. […] Protocol participants that meet these requirements are candidates for the initial counseling session.
The counseling session selects protocol participants through a psychological screen to determine if there are any issues which would prevent a protocol participant from following the diet. Issues such as severe carbohydrate craving, inability to cook, or not having anyone to cook for the protocol participant would eliminate a potential participant from participating in the diet. Protocol participants are informed that in order to lose weight with this program, they must adapt their lifestyle as described herein to maintain the weight loss. […]
After three or six weeks, depending on the amount of weight loss desired and participant motivation, protocol participants enter phase two of the diet. […] The rate and amount of calorie increase is determined by the physician during an office visit near the end of phase one. […]

[3] = HCG with calorie restriction, in six weeks, if protocol strictly followed; cited from earlier work

human chorionic gonadotropin [HCG]
group reporting little or no hunger ([1]; Simeons protocol, double-blind): about 80%
people who still experience hunger ([1]; protocol of Dr. Simeons, as illustrated by the 1973 Asher and Harper study): approximately 20%
mean weight lost ([1]; subjects completing at least 30 injections, Simeons protocol): about 20 lbs
percent of people who get hungry while on the protocol ([2]; low calorie diet with HCG regimen): approximately 20%
patients who experienced little or no hunger ([2]; over 150 people treated with HCG protocol, over eighty with enhanced formula): about 80%
weight loss [3]: up to 35 lbs.
